# The entries are a selection whose mix differs from that of the whole data set. Calls of active or inactive are those of the source.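 Rule for the calls: active = inhibition above the mean over all tested compounds plus 3 SD (cut at about 30% in these data); inactive = the rest.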
# Biological target: Platelet-activating factor acetylhydrolase 2, cytoplasmic (Homo sapiens) (UniProt Q99487)
# Experiment: inhibition of cytoplasmic PAF acetylhydrolase 2 – biochemical, fluorescence polarization, human, primary screen (AID 492956);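 note: inhibitors block probe labeling of enzyme so polarization drops; 0% = enzyme with DMSO and 100% = wells lacking PAFAH2 protein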
# Settings: recombinant PAFAH2, FP-rhodamine activity probe, at 3.39 µM, hits give high values
row,Compound,inhibition
1,COc1ccc(CN(CCCl)CCCl)cc1Cl,inactive: 1.07%
2,CN(C)c1cccc(C(=O)NCC2(N3CCCCC3)CCCCC2)c1,inactive: -0.55%
3,CC(C)c1ccc(NC2CCN(C(=O)OC(C)(C)C)CC2)cc1,inactive: -0.01%
4,COc1cc(OC)c(C(=O)NCC2(N(C)C)CCCCC2)cc1OC,inactive: 0.72%
5,O=C(NCC1(N2CCOCC2)CCCCC1)c1cc(F)c(F)cc1Cl,inactive: 5.43%
6,O=C(NCC1(N2CCCCC2)CCCCC1)c1cncc(Br)c1,inactive: 0.16%
7,CN1CCC(Nc2cccc(F)c2)CC1,inactive: 3.48%
8,CCCOc1ccc(C(=O)NCC2(N(C)C)CCCCC2)cc1OC,inactive: -1.83%
9,O=C(NCC1(N2CCCCC2)CCCCC1)c1ccc(OC(F)F)cc1,inactive: 6.93%
10,O=C(NCC1(N2CCCCC2)CCCCC1)c1cccc([N+](=O)[O-])c1,inactive: -2.44%
11,CSc1ccc(C(=O)NCC2(N3CCOCC3)CCCCC2)cc1,inactive: -1.58%
12,CCN1CCC(Nc2ccc(Cl)cc2)CC1,inactive: 0.95%
13,N#CC1(Nc2ccccc2)CCN(CCc2ccccc2)CC1,inactive: 4.69%
14,O=C(NCC1(N2CCCCC2)CCCCC1)c1cccc(C(F)(F)F)c1,inactive: 8.35%
15,CN1CCN(CCOC(=O)C(O)(c2ccccc2)c2ccccc2)CC1,inactive: -1.08%
16,CC(C)c1ccc(C(=O)NCC2(N3CCOCC3)CCCCC2)cc1,inactive: 1.34%
17,COc1ccc(NC2CCN(C(=O)OC(C)(C)C)CC2)cc1,inactive: 4.86%
18,COc1cc(C(=O)NCC2(N3CCCCC3)CCCCC2)ccc1OC(F)F,inactive: -2.66%
19,O=C(NCC1(N2CCOCC2)CCCCC1)c1cc(=O)[nH]c2ccccc12,inactive: 5.14%
20,CCOc1ccc(C)cc1CN(CCCl)CCCl,inactive: 3.98%
21,O=C1CCN(Cc2ccccc2)CC1,inactive: 2.83%
22,O=C(NCC1(N2CCCCC2)CCCCC1)c1ccc(F)cc1,inactive: -11.4%
23,O=P1(N(CCCl)CCCl)SCCCS1,inactive: 1.46%
24,CCCCOc1ccc(C(=O)NCC2(N3CCOCC3)CCCCC2)cc1,inactive: -4.56%
25,COc1ccc(NC2CCN(CCc3ccccc3)CC2)c(OC)c1,inactive: 3.26%

row,Compound,inhibition
1,CCOC(=O)N1CCC(Nc2ccc(F)cc2)CC1,inactive: -1.31%
2,COc1cc(C(=O)NCC2(N(C)C)CCCCC2)ccc1OC(F)F,inactive: -9.06%
3,CCOC(=O)N1CCC(Nc2cccc(C)c2)CC1,inactive: 2.84%
4,O=C(NCC1(N2CCCCC2)CCCCC1)c1ccc(=O)[nH]c1,inactive: 6.17%
5,O=C(NCC1(N2CCCCC2)CCCCC1)c1cccs1,inactive: 4.82%
6,COc1ccc(C(=O)NCC2(N3CCCCC3)CCCCC2)cc1,inactive: 6.8%
7,CC(C)(C)OC(=O)N1CCC(N(C(=O)c2ccccc2)c2ccc(F)cc2)CC1,inactive: 7.55%
8,COc1ccc(C(=O)NCC2(N3CCCCC3)CCCCC2)c(OC)c1OC,inactive: -4.37%
9,CSc1ccccc1C(=O)NCC1(N2CCCCC2)CCCCC1,inactive: -2.82%
10,Cc1cccc(NC2(C#N)CCN(Cc3ccccc3)CC2)c1,inactive: 0.59%
11,O=C(NCC1(N2CCOCC2)CCCCC1)c1cc2ccccc2o1,inactive: -3.71%
12,O=C(NCC1(N2CCCCC2)CCCCC1)c1ccc(Cl)nc1,inactive: -0.86%
13,Cc1cc(C)cc(N(C(=O)c2ccccc2)C2CCN(C(=O)OC(C)(C)C)CC2)c1,inactive: -0.36%
14,CCOC(=O)N1CCC(Nc2ccc(OC)cc2)CC1,inactive: 6.64%
15,O=C(OC1CN2CCC1CC2)C1c2ccccc2Oc2ccccc21 (centres undefined),inactive: 4.17%
16,O=C(NCC1(N2CCCCC2)CCCCC1)c1ccc(Cl)s1,inactive: 3.35%
17,N#CC1(Nc2ccccc2)CCN(Cc2ccccc2)CC1,inactive: 1.5%
18,COc1ccc(Cl)cc1C(=O)NCC1(N2CCOCC2)CCCCC1,inactive: -11.3%
19,CCOc1ncccc1C(=O)NCC1(N2CCOCC2)CCCCC1,inactive: 1.18%
20,CN1CCC(Nc2ccc(F)c(Cl)c2)CC1,inactive: -7.15%
21,CCCOc1ccc(C(=O)NCC2(N(C)C)CCCCC2)cc1,inactive: -4.44%
22,CC(C)(C)OC(=O)N1CCC(Nc2ccccc2)CC1,inactive: 1.57%
23,O=C(O)C1(Nc2ccccc2)CCN(Cc2ccccc2)CC1,inactive: 0.87%
24,CCC(CO)(C(=O)OC1CN2CCC1CC2)c1ccccc1 (centres undefined),inactive: 0.79%
25,COc1cc(OC)cc(C(=O)NCC2(N3CCOCC3)CCCCC2)c1,inactive: -2.56%

row,Compound,inhibition
1,COc1cccc(C(=O)N(c2cc(C)cc(C)c2)C2CCN(C(=O)OC(C)(C)C)CC2)c1,inactive: -1.93%
2,CN1CCC(Nc2ccc(Cl)cc2)CC1,inactive: 2.5%
3,COc1cc(OC)cc(C(=O)NCC2(N3CCCCC3)CCCCC2)c1,inactive: 10.8%
4,CC(=O)N(c1ccccc1)C1CCNCC1,inactive: -5.27%
5,Cc1ccc(NC2(C#N)CCN(Cc3ccccc3)CC2)cc1,inactive: 0.37%
6,Cc1ccc(C(=O)NCC2(N3CCCCC3)CCCCC2)o1,inactive: 1.97%
7,Fc1ccccc1NC1CCN(Cc2ccccc2)CC1,inactive: -1.99%
8,Cc1ccccc1NC1(C#N)CCN(Cc2ccccc2)CC1,inactive: -2%
9,CCN1CCC(Nc2cccc(F)c2)CC1,inactive: -3.43%
10,O=C(NCC1(N2CCCCC2)CCCCC1)c1ccco1,inactive: -8.61%
11,Cn1c(=O)[nH]cc(N(CCCl)CCCl)c1=O,inactive: 3.63%
12,CN(C)c1ccc(C(=O)NCC2(N3CCCCC3)CCCCC2)cc1,inactive: 5.61%
13,CC(C)(C)OC(=O)N1CCC(N(C(=O)c2ccccc2)c2ccc(Cl)cc2)CC1,inactive: 1.06%
14,N#Cc1ccc(C(=O)NCC2(N3CCCCC3)CCCCC2)cc1,inactive: 7.96%
15,c1ccc(CN2CCC(Nc3ccccc3)CC2)cc1,inactive: 3.57%
16,Cc1cc(N(CCCl)CCCl)ccc1C=O,inactive: -0.96%
17,CCCN1CCC(Nc2cc(OC)cc(OC)c2)CC1,inactive: 2.71%
18,CN(C)C1(CNC(=O)c2cccc(C#N)c2)CCCCC1,inactive: 5.93%
19,O=C(NCC1(N2CCOCC2)CCCCC1)c1cc(Br)ccc1Cl,inactive: 2.81%
20,COc1cc(C(=O)NCC2(N3CCOCC3)CCCCC2)cc(OC)c1C,inactive: 1.87%
21,COc1ccc(C(=O)NCC2(N3CCOCC3)CCCCC2)cc1OC,inactive: -6.08%
22,N/C(=N\O)c1c(N)no[n+]1[O-],inactive: 4.61%
23,CCOC(=O)N1CCC(Nc2ccc(C)cc2)CC1,inactive: -2.58%
24,O=C(OC1CN2CCC1CC2)C1c2ccccc2C=Cc2ccccc21 (centres undefined),inactive: -8.26%

# Source: PubChem BioAssay AID492956 (The Scripps Research Institute Molecular Screening Center, 2010)
